From publication PMC137588 (BMC Neuroscience, 2002)

Protein sequences, listed by entry. Tags and fused reporters are not part of them. Lines headed by an entry give the natural chain unless they say otherwise; changes in a name come on top.
UniProt P32300, whole entry: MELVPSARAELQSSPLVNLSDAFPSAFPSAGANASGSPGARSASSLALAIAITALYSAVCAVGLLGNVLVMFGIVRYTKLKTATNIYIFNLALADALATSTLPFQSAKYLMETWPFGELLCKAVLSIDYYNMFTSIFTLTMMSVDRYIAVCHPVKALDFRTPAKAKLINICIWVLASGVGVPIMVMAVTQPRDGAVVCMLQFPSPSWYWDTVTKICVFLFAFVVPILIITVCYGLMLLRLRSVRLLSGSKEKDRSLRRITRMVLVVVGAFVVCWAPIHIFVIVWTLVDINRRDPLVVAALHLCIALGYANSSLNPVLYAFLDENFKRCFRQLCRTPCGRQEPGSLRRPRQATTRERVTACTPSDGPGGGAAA

Target: mouse δ opioid receptor (Mus musculus, UniProt P32300)
Experiment: biochemical
Format: binding

C=CCN1CC[C@]23c4c5ccc(O)c4O[C@H]2[C@@H](O)C=C[C@H]3[C@H]1C5 [Nalorphine]
Ki: 38.5 ± 4 nM
